The record followed here is patent US6812034B2, “Fetuin-MGP-mineral complex in serum assayed to determine calcification risk” (The Regents of the University of California, priority 2000, dated 2004).

Series [1] can be described thus: weight, tibia length and serum calcium and phosphate in warfarin-treated rats. The class given is in vivo, rat. The note with it: 0.025 mg P/kg/day plus warfarin, 4 weeks.
The nature of series [2]: serum levels of calcium and phosphate in rats treated with vitamin D plus warfarin. The class given is in vivo, rat. To be noted: 0.25 mg P/kg/day; 84 h.

As to `NCCCC(O)(P(=O)(O)O)P(=O)(O)O` [Alendronate, (4-amino-1-hydroxybutylidene)bis-phosphonate], the Ending wt in series [1] is 301 ± 8 gm. Further, in series [2], the “Serum Ca” value is listed as 14.5 ± 0.1 mg/dL.
